Measurements published in paper PMC5659129, “Determinants of the Inhibition of DprE1 and CYP2C9 by Antitubercular Thiophenes” (Angewandte Chemie (International Ed. in English), 2017).

Protein sequences, listed by entry. Tags and fused reporters are not part of them. Lines headed by an entry give the natural chain unless they say otherwise; changes in a name come on top.
UniProt A0R607: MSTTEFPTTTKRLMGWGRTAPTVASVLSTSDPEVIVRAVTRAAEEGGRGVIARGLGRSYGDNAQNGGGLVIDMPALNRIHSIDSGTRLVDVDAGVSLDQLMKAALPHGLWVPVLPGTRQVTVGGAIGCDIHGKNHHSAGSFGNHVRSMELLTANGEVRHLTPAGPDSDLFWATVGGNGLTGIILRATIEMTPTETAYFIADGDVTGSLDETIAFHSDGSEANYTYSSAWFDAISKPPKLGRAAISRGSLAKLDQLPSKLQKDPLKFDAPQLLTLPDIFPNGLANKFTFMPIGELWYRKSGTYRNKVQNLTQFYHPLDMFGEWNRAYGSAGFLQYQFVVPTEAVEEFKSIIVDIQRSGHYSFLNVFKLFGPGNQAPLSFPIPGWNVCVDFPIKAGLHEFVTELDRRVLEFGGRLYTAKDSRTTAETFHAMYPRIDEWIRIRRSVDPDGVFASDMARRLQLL

Target: M. smegmatis DprE1 WT (Mycolicibacterium smegmatis, UniProt A0R607)
Experiment: biochemical
[1] = M. smegmatis DprE1, Table 1, read-out: IC50 DprE1 WT

Row | SMILES | IC50 [1] [nM] | Ki (steady-state kinetics, Table S2) [nM] | improvement of IC50 compared to TCA1 (DprE1 IC50 relative to TCA1) [fold] | IC50 (Figure 4D, read-out: DprE1 IC50) [nM] | IC50 (read-out: IC50 (DprE1)) [nM]
1 | CCOC(=O)NC(=O)c1ccsc1NC(=O)c1nc2ccccc2s1 [TCA1] | 48 ± 14 | 150 | – | – | –
2 | CCOC(=O)NC(=O)c1ccsc1NC(=O)c1nc2cnccc2s1 [TCA007] | 5.3 | – | 8 | 100 | 5 ± 2

Read-outs that look alike come from different tables or passages of the source.
